This test deals with Acetylcholinesterase (Electrophorus electricus) (UniProt O42275). Briefly: The compound was tested for % of maximum reactivation for GD-inhibited Eel AChE (Acetylcholinesterase) by oximes.

The chains behind the UniProt entries cited, without tags or fusion partners. Where a name states a change or a piece, a line headed by the entry shows the natural chain unless it says otherwise.
UniProt O42275: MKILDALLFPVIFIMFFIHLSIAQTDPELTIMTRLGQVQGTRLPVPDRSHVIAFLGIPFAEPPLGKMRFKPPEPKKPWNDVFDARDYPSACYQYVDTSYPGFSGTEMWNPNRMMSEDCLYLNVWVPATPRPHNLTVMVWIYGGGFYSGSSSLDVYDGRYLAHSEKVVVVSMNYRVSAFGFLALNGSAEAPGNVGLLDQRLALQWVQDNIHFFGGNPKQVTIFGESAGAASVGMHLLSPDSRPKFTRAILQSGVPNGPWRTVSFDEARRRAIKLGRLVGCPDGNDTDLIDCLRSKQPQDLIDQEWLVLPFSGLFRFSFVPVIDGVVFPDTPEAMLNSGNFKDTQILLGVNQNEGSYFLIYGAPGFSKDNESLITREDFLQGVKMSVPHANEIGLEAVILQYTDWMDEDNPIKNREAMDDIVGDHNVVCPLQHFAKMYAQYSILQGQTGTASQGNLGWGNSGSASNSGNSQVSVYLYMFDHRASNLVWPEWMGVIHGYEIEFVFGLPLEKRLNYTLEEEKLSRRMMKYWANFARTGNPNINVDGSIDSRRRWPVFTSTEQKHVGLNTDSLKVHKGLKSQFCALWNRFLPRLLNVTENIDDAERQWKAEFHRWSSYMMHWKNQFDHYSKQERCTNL

The molecule `COC[n+]1ccn(C)c1/C=N/O` showed an Rmax of 15%.

(Values after ChEMBL document CHEMBL1122516, “Structure-activity relationships for reactivators of organophosphorus-inhibited acetylcholinesterase: quaternary salts of 2-[(hydroxyimino)methyl]imidazole” (1984).)
